# Key:
# [1] = Prophetic intraocular pressure reduction, brimonidine and netarsudil (Example 3); conditions: 0.0675% w/v brimonidine, 0.02% w/v netarsudil, or their combination; topical
# [2] = Prophetic intraocular pressure reduction, brimonidine and latanoprost (Example 1); conditions: 0.035% brimonidine, 0.005% latanoprost, or combination of 0.03% brimonidine and 0.005% latanoprost; topical
structure (smiles),measurement,setting,value
"Brc1c(N=C2NCCN2)ccc2nccnc12.O=C(O)C(O)C(O)C(=O)O [brimonidine, 5-bromo-6-(2-imidazolin-2-ylamino)quinoxaline D-tartrate]",ocular hyperemia (side effect),[1],not observed
same,ocular hyperemia (side effect),[2],not observed
